Source: patent US9630929B2, “Benzenesulfonamide compounds and their use as therapeutic agents” (XENON PHARMACEUTICALS INC., priority 2011, dated 2017)
pIC50: −log10 of the molar value. Read-outs that look alike come from different tables or passages of the source.

By UniProt entry, the sequences of proteins in these tests, tags left out. Chains listed by the source or under a name are the forms on record and can include a tag or linker.
UniProt Q14524, whole entry: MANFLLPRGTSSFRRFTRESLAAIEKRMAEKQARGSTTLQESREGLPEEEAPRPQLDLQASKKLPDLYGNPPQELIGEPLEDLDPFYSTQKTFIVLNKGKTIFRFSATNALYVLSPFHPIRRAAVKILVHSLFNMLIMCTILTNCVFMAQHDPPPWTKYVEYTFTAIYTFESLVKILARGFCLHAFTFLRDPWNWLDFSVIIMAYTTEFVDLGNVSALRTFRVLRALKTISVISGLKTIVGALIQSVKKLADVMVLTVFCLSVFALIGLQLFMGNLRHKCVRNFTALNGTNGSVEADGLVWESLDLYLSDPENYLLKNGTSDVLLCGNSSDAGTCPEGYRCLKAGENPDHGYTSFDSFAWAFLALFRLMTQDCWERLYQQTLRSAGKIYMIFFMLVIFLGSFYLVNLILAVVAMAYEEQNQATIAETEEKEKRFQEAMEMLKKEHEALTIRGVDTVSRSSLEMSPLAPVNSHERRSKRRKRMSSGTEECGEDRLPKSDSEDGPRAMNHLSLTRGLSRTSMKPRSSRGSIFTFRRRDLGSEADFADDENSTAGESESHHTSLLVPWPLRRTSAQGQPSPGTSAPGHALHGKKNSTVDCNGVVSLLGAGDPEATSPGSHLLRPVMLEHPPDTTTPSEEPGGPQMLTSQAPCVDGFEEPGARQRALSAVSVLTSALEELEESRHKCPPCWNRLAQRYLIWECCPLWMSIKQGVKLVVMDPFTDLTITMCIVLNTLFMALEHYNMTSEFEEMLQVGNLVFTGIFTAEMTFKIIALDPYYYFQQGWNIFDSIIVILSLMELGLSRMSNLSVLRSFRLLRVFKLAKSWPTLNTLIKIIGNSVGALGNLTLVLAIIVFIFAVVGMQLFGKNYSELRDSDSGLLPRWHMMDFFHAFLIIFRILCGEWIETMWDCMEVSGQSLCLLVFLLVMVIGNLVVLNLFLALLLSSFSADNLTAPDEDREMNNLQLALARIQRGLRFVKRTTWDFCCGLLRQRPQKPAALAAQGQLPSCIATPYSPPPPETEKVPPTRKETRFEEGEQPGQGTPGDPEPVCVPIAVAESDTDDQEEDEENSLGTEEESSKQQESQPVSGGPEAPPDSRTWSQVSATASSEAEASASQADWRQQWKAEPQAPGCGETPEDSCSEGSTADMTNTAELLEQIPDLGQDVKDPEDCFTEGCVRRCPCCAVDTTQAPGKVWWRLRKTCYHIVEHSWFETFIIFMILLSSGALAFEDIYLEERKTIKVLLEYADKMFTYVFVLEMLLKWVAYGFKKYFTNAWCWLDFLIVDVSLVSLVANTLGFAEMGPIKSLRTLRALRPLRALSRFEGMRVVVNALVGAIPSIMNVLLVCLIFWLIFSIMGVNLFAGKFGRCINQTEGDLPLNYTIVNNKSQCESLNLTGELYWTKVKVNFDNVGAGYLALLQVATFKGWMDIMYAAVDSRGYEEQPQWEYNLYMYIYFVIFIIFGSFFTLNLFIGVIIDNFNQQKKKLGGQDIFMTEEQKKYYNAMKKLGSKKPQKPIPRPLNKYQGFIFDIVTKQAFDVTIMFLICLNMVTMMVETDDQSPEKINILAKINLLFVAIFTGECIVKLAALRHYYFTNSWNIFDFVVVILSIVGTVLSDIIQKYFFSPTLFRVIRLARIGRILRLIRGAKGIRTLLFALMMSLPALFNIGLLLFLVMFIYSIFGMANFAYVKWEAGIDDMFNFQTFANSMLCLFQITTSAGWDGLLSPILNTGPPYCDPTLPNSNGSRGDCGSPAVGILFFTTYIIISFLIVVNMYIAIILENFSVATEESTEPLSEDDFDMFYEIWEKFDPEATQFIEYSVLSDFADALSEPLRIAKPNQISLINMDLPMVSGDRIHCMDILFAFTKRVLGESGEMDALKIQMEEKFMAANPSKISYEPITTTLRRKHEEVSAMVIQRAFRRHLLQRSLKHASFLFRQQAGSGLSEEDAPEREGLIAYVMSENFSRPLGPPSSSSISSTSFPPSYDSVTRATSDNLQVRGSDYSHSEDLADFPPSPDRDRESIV
UniProt Q15858, other isoform, or with tags, fused parts or gaps: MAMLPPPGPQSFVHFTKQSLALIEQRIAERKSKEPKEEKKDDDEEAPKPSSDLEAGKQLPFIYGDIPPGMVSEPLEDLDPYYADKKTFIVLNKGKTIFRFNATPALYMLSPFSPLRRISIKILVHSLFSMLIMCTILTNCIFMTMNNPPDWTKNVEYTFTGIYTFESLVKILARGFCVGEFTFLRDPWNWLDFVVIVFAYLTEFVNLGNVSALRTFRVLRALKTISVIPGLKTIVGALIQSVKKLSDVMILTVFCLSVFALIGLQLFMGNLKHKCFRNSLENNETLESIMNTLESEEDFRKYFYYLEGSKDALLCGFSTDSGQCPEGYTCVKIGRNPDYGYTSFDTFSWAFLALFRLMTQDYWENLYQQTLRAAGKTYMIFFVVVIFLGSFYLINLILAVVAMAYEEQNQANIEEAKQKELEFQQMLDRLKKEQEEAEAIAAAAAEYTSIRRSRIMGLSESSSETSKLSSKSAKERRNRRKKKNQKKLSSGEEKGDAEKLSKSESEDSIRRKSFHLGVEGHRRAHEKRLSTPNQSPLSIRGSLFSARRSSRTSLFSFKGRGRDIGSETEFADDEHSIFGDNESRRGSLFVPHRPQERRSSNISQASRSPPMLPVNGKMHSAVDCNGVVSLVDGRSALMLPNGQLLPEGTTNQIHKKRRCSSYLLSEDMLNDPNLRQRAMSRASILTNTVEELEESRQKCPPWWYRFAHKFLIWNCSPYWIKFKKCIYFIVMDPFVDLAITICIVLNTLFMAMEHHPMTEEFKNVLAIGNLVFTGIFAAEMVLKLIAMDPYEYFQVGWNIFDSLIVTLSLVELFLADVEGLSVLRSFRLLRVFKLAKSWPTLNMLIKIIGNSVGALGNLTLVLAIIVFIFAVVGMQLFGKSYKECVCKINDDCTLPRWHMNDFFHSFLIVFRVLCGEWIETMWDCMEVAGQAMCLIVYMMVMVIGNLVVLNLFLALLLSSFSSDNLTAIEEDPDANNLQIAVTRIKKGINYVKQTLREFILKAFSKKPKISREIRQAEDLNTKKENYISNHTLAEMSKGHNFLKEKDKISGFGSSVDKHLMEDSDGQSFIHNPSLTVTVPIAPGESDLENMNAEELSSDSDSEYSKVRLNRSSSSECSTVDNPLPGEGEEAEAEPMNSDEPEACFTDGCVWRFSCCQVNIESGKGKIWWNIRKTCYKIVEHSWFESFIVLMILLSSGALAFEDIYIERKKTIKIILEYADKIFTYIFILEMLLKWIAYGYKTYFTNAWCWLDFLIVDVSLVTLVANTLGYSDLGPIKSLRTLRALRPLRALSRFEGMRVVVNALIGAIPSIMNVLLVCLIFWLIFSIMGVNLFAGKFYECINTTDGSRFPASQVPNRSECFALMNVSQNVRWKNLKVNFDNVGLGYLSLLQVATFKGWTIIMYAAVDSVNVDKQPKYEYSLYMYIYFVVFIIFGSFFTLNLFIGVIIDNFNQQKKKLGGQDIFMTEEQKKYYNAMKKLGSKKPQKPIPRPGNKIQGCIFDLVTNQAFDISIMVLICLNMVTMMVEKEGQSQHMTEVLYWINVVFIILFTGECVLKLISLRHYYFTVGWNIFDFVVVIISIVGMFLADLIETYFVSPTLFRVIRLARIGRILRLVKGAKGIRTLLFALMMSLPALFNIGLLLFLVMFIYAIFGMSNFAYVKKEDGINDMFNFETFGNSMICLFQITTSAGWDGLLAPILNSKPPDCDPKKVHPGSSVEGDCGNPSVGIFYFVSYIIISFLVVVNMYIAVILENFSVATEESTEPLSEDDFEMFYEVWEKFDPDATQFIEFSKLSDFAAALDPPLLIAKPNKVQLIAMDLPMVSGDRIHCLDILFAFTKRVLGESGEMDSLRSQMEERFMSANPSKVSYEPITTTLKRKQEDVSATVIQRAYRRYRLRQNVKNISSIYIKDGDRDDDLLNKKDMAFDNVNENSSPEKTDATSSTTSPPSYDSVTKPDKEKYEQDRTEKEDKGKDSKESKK

How the values were obtained:
NaV1.5 = NaV1.5 (Homo sapiens (Human), UniProt Q14524); assay: Patch voltage clamp electrophysiology (EP), affinity for the inactivated state of Nav1.5; format: cell-based; conditions: for pIC50: HEK-293 cells expressing human Nav1.5, read-out: NaV1.5 IC50; for IC50: HEK-293 cells expressing human Nav1.5, read-out: NaV1.5 IC50(μM) (class)
Method: Patch voltage clamp electrophysiology allows for the direct measurement and quantification of block of voltage-gated sodium channels (Nav's), and allows the determination of the time- and voltage-dependence of block which has been interpreted as differential binding to the resting, open, and inactivated states of the sodium channel (Hille, B., Journal of General Physiology (1977), 69: 497-515).
(§1) The following patch voltage clamp electrophysiology studies were performed on representative compounds of the invention using human embryonic kidney cells (HEK), permanently transfected with an expression vector containing the full-length cDNA coding for the desired human sodium channel α-subunit, grown in culture media containing 10% FBS, 1% PSG, and 0.5 mg/mL G418 at 37° C. with 5% CO2. […] Nav1.7 and Nav1.5 cDNAs (NM_002977 and AC137587; SCN5A, respectively) were stably expressed in HEK-293 cells. The β1 subunit was coexpressed only in the Nav1.7 cell line.
(§2) Sodium currents were measured using the patch clamp technique in the whole-cell configuration using either a PatchXpress automated voltage clamp or manually using an Axopatch 200B (Axon Instruments) or Model 2400 (A-M systems) amplifier. The manual voltage clamp protocol was as follows: Borosilicate glass micropipettes were fire-polished to a tip diameter yielding a resistance of 2-4 Mohms in the working solutions. The pipette was filled with a solution comprised of: 5 mM NaCl, 10 mM CsCl, 120 mM CsF, 0.1 mM CaCl2, 2 mM MgCl2, 10 mM HEPES, 10 mM EGTA; and adjusted to pH 7.2 with CsOH. The external solution had the following composition: 140 mM NaCl, 5 mM KCl, 2 mM CaCl2, 1 mM MgCl2, 10 mM HEPES; and adjusted to pH 7.4 with NaOH. In some studies, the external sodium was reduced by equimolar replacement with choline. Osmolarity in the CsF internal and NaCl external solutions was adjusted to 300 mOsm/kg and 310 mOsm/kg with glucose, respectively. All recordings were performed at ambient temperature in a bath chamber with a volume of 150 μL. Control sodium currents were measured in 0.5% DMSO. Controls and representative compounds of the invention were applied to the recording chamber through a 4-pinch or 8-pinch valve bath perfusion system manufactured by ALA Scientific Instruments.
Currents were recorded at 40 kHz sampling frequency, filtered at […], and stored using a Digidata-1322A analogue/digital interface with the pClamp software (Axon Instruments). Series resistance compensation was applied (60-80%). […]
The membrane potential was maintained at a voltage where inactivation of the channel is complete (which was −60 mV for both Nav1.7 and Nav1.5). The voltage is then stepped back to a very negative (Vhold=−150 mV) voltage for 20 ms and then a test pulse is applied to quantify the compound block. […]

NaV1.7 = NaV1.7 (Homo sapiens (Human), UniProt Q15858); assay: Patch voltage clamp electrophysiology (EP), affinity for the inactivated state of Nav1.7; format: cell-based; conditions: HEK-293 cells expressing human Nav1.7 with β1 subunit
Method: as §1, §2
Series resistance compensation was applied (60-80%). […] All statistics in this study are given as mean±SD.
The membrane potential was maintained at a voltage where inactivation of the channel is complete (which was −60 mV for both Nav1.7 and Nav1.5). The voltage is then stepped back to a very negative (Vhold=−150 mV) voltage for 20 ms and then a test pulse is applied to quantify the compound block. […] The percent decrease in sodium current following wash-on of compound was taken as the percent block of sodium channels.
The Example numbers provided in Table 1 and Table 2 correspond to the Examples herein: […]

| pIC50 (NaV1.7; read-out: NaV1.7 (IC50 class)) | pIC50 (NaV1.7; read-out: NaV1.7 IC50) | Compound | pIC50 (NaV1.5) | IC50 (NaV1.5) [µM] |
| --- | --- | --- | --- | --- |
| 6.00 to 7.00 | – | O=S(=O)(Nc1ncns1)c1cc(F)c(OC[C@H]2CNCC[C@H]2c2ccc(Cl)cc2)cc1F (relative stereo) [Example 66, 4-((cis-4-(4-chlorophenyl)piperidin-3-yl)methoxy)-2,5-difluoro-N-(1,2,4-thiadiazol-5-yl)benzenesulfonamide] | – | – |
| > 7.00 | 7.48 | O=S(=O)(Nc1ccncn1)c1cc(F)c(OC[C@@H]2CNCC[C@H]2c2ccc(Cl)cc2)cc1F (relative stereo) [Example 60, 4-((trans-4-(4-chlorophenyl)piperidin-3-yl)methoxy)-2,5-difluoro-N-(pyrimidin-4-yl)benzenesulfonamide] | – | – |
| > 7.00 | 7.64 | O=S(=O)(Nc1ncc(Cl)s1)c1cc(F)c(OC[C@@H]2CNCC[C@H]2c2ccc(Cl)cc2)cc1F (relative stereo) [Example 62, 4-((trans-4-(4-chlorophenyl)piperidin-3-yl)methoxy)-N-(5-chlorothiazol-2-yl)-2,5-difluorobenzenesulfonamide] | – | – |
| > 7.00 | 8.59 | O=S(=O)(Nc1ncns1)c1cc(F)c(OC[C@@H]2CNCC[C@H]2c2ccc(F)c(F)c2)cc1F (relative stereo) [Example 48, 4-((trans-4-(3,4-difluorophenyl)piperidin-3-yl)methoxy)-2,5-difluoro-N-(1,2,4-thiadiazol-5-yl)benzenesulfonamide] | – | – |

The remaining lines, values behind:

| Compound | pIC50 (NaV1.7; read-out: NaV1.7 (IC50 class)) | pIC50 (NaV1.7; read-out: NaV1.7 IC50) | pIC50 (NaV1.5) | IC50 (NaV1.5) [µM] |
| --- | --- | --- | --- | --- |
| O=S(=O)(Nc1ncns1)c1cc(F)c(OC[C@@H]2CNCC[C@H]2c2ccc(Cl)cc2)cc1F [Example 84, 4-(((3S,4R)-4-(4-chlorophenyl)piperidin-3-yl)methoxy)-2,5-difluoro-N-(1,2,4-thiadiazol-5-yl)benzenesulfonamide] | – | – | < 5.00 | > 10 |
| O=S(=O)(Nc1ncns1)c1cc(F)c(OC[C@@H]2CNCC[C@H]2c2ccc(Cl)c(F)c2)cc1F (relative stereo) [Example 97, 4-((trans-4-(4-chloro-3-fluorophenyl)piperidin-3-yl)methoxy)-2,5-difluoro-N-(1,2,4-thiadiazol-5-yl)benzenesulfonamide] | > 7.00 | 9.05 | – | – |
| O=S(=O)(Nc1ncns1)c1cc(F)c(OC[C@@H]2CNCC[C@H]2c2ccc(Cl)cc2)cc1F (relative stereo) [Example 44, 4-((trans-4-(4-chlorophenyl)piperidin-3-yl)methoxy)-2,5-difluoro-N-(1,2,4-thiadiazol-5-yl)benzenesulfonamide] | – | – | < 5.00 | > 10 |
